Reference: publication PMC7403138 (Clinical Pharmacokinetics, 2020)

Assay: Population pharmacokinetic analysis
Type: in vivo, human
Settings: covariate test; ΔOFV > − 0.4, p > 0.1

CC(C)c1c(C(=O)Nc2ccccc2)c(-c2ccccc2)c(-c2ccc(F)cc2)n1CC[C@@H](O)C[C@@H](O)CC(=O)O [atorvastatin]
influence of aging on FRator-oOH or CLator: did not significantly influence
